Reference: US20060293223A1 (Eli Lilly and Company Patent Division, priority 2003, published 2006)
pKi: −log10 of the molar value.

Amino acid sequences for entries named in this document (tags omitted). A change or cut given only in a name is not applied to a line headed by its entry.
UniProt P41968: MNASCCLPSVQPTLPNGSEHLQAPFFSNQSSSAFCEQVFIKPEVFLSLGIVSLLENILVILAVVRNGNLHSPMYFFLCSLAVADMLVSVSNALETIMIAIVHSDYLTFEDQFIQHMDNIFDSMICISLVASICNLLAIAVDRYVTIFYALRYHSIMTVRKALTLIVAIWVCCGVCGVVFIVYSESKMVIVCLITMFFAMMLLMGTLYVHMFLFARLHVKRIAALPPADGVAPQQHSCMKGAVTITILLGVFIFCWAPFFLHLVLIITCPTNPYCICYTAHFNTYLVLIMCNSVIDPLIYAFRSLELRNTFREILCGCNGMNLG

Target: human MC3R (Homo sapiens, UniProt P41968)
Assay: Melanocortin receptor whole cell cAMP accumulation assay, MC3 (Table 2, MC3 Potency, printed as Ki)
Format: cell-based
Settings: HEK 293 cells

Substance | pKi
Tyr-Arg-cyclo[hCys-His-D-Phe-Arg-Trp-Cys]-OH [Compound 163] | 7.07
Ac-Arg-cyclo[Cys-His-D-Phe-Arg-Trp-hCys]-NH2 [Compound 189] | 7.04
Ac-Lys-cyclo[Cys-Glu-His-D-Phe-Arg-Trp-Cys]-NH2 [Compound 58] | 6.97
Ac-Tyr-Arg-cyclo[Cys-Glu-His-(4-OMe-D-Phe)-Arg-Trp-Cys]-NH2 [Compound 93] | 7.78
Ac-Leu-cyclo[Cys-Glu-His-D-Phe-Arg-Trp-Cys]-NH2 [Compound 57] | 6.70
Ac-Tyr-Arg-cyclo[Cys-Glu-(1-Me-D-His)-(4-OMe-D-Phe)-Arg-Trp-Cys]-NH2 [Compound 95] | ≤ 6.30
Ac-D-Arg-cyclo[Cys-Glu-His-D-Phe-Arg-Trp-Cys]-OH [Compound 53] | < 6.30
Ac-cyclo[Cys-Glu-His-(4-F-D-Phe)-Arg-Trp-Cys]-NH2 [Compound 31] | 6.98
Ac-Arg-cyclo[Cys-Cya-His-D-Phe-Arg-Trp-Cys]-NH2 [Compound 26] | 7.23
N-cyclobutanecarbonyl-cyclo[hCys-His-D-Phe-Arg-Trp-Cys]-NH2 [Compound 142] | 8.71
Tyr-Arg-cyclo[Cys-Glu-His-D-Phe-Arg-Trp-Cys]-Glu-NH2 [Compound 71] | 7.44
Ac-cyclo[Cys-Leu-His-D-Phe-Arg-Trp-Cys]-NH2 [Compound 15] | 7.08
Ac-Tyr-Arg-cyclo[Cys-Glu-His-D-Phe-Arg-Trp-Cys]-Lys-Pro alcohol [Compound 122] | 8.40
Ac-Tyr-Arg-cyclo[Cys-Glu-(4-phenyl-1H-imidazol-2-yl-Ala)-D-Phe-Arg-Trp-Cys]-NH2 [Compound 103] | 7.69
Ac-Tyr-Arg-cyclo[Cys-Glu-(1-Bom-His)-D-Phe-Arg-Trp-Cys]-NH2 [Compound 101] | 7.58
Tyr-Arg-cyclo[Cys-Glu-His-D-Phe-Arg-Trp-Cys]-NH—(CH2)6—NH2 [Compound 70] | 8.00
N-cyclopropanecarbonyl-cyclo[hCys-His-D-Phe-Arg-Trp-Cys]-NH2 [Compound 141] | 8.43
Ac-Arg-cyclo[hCys-His-D-Phe-Arg-Trp-Cys]-NH2 [Compound 158] | 8.72
Ac-Tyr-Arg-cyclo[Cys-Thr-His-D-Phe-Arg-Trp-Cys]-NH2 [Compound 22] | 7.52
Ac-Tyr-Arg-cyclo[Cys-Gly-His-D-Phe-Arg-Trp-Cys]-NH2 [Compound 12] | 6.92

Substance | pKi
Ac-Tyr-Arg-cyclo[Cys-Glu-(1-pyrazolyl-Ala)-D-Phe-Arg-Trp-Cys]-NH2 [Compound 102] | ≤ 6.30
Ac-Tyr-Arg-cyclo[Cys-Glu-(β-(pyridin-4-yl)-Ala)-D-Phe-Arg-Trp-Cys]-NH2 [Compound 113] | 6.58
Ac-Arg-cyclo[Cys-His-(4-Cl-D-Phe)-Arg-Trp-hCys]-NH2 [Compound 191] | 8.38
Ac-Tyr-Arg-cyclo[Cys-Phe-His-D-Phe-Arg-Trp-Cys]-NH2 [Compound 19] | 7.55
Arg-cyclo[hCys-His-D-Phe-Arg-Trp-Cys]-NH2 [Compound 153] | 8.39
Ac-Tyr-Arg-cyclo[Cys-Arg-His-D-Phe-Arg-Trp-Cys]-NH2 [Compound 4] | 7.53
Ac-Tyr-Arg-cyclo[Cys-Glu-His-D-Phe-Arg-Trp-Cys]-Arg-Phe-NH2 [Compound 123] | 7.87
N-hexanoyl-cyclo[hCys-His-D-Phe-Arg-Trp-Cys]-NH2 [Compound 145] | 8.24
Tyr-Arg-cyclo[hCys-His-D-Phe-Arg-Trp-Cys]-NH2 [Compound 162] | 8.55
Ac-Tyr-Cit-cyclo[Cys-Glu-His-D-Phe-Arg-Trp-Cys]-NH2 [Compound 124] | 6.48
Ac-cyclo[Cys-His-D-Phe-Arg-Trp-Cys]-NH2 [Compound 1] | ≤ 6.30
Ac-Tyr-Arg-cyclo[Cys-Glu-His-D-Phe-Arg-Trp-hCys]-NH2 [Compound 192] | ≤ 6.30
Ac-cyclo[Cys-Glu-His-D-Phe-Arg-Trp-Cys]-Lys-Pro-NH2 [Compound 35] | 7.54
Ac-D-Arg-cyclo[Cys-Cya-His-D-Phe-Arg-Trp-Cys]-NH2 [Compound 27] | 7.10
cyclo[Cys-His-D-Phe-Arg-Trp-hCys]-NH2 [Compound 180] | ≤ 6.30
Ac-Tyr-Arg-cyclo[Cys-Glu-(β-(1,2,4-triazol-3-yl))-D-Ala)-D-Phe-Arg-Trp-Cys]-NH2 [Compound 107] | ≤ 6.30
Ac-Tyr-Arg-cyclo[Cys-Asp-His-D-Phe-Arg-Trp-Cys]-NH2 [Compound 7] | 7.38
Ac-Tyr-Arg-cyclo[Cys-Glu-(2-pyrazine-Ala)-D-Phe-Arg-Trp-Cys]-NH2 [Compound 105] | ≤ 6.30
cyclo[hCys-His-(4-Cl-D-Phe)-Arg-Trp-Cys]-NH2 [Compound 135] | 8.99
Ac-Tyr-Arg-cyclo[hCys-His-D-Phe-Arg-Trp-Cys]-NH2 [Compound 164] | 8.04

Substance | pKi
(4-benzenesulfonamide)butyryl-cyclo[hCys-His-D-Phe-Arg-Trp-penicillamine]-NH2 [Compound 176] | 7.72
Ac-Tyr-Arg-cyclo[Cys-Val-His-D-Phe-Arg-Trp-Cys]-NH2 [Compound 25] | 7.43
Arg-cyclo[Cys-His-(4-F-D-Phe)-Arg-Trp-hCys]-NH2 [Compound 187] | 7.64
cyclo[3-thiopropionyl-His-D-Phe-Arg-Trp-hCys]-NH2 [Compound 179] | ≤ 6.30
Ac-Orn-cyclo[Cys-Glu-His-D-Phe-Arg-Trp-Cys]-NH2 [Compound 62] | 6.86
cyclo[Cys-His-(4-Cl-D-Phe)-Arg-Trp-hCys]-NH2 [Compound 182] | 7.15
Ac-Tyr-Arg-cyclo[Cys-Ala-His-D-Phe-Arg-Trp-Cys]-NH2 [Compound 3] | 7.46
N-glutaryl-Tyr-Arg-cyclo[Cys-Glu-His-D-Phe-Arg-Trp-Cys]-NH2 [Compound 75] | 6.84
Ac-Tyr-Arg-cyclo[Cys-Ile-His-D-Phe-Arg-Trp-Cys]-NH2 [Compound 14] | 7.49
N-cyclohexanecarbonyl-cyclo[hCys-His-D-Phe-Arg-Trp-penicillamine]-NH2 [Compound 172] | 8.43
N-propionyl-cyclo[Cys-Glu-His-D-Phe-Arg-Trp-Cys]-NH2 [Compound 37] | 6.50
3-guanidinopropionyl-cyclo[Cys-Glu-His-D-Phe-Arg-Trp-Cys]-NH2 [Compound 40] | 7.21
Ac-D-Arg-cyclo[Cys-Glu-His-D-Phe-Arg-Trp-Cys]-NH2 [Compound 52] | 7.18
Ac-Tyr-Arg-cyclo[Cys-Glu-(1-Me-D-His)-(4-F-D-Phe)-Arg-Trp-Cys]-NH2 [Compound 85] | ≤ 6.30
Ac-Arg-cyclo[Cys-Glu-His-D-Phe-Arg-Trp-Cys]-NH2 [Compound 48] | 7.53
Ac-hArg-cyclo[Cys-Glu-His-D-Phe-Arg-Trp-Cys]-NH2 [Compound 54] | 7.27
Ac-Tyr-Arg-cyclo[Cys-Glu-(1-Me-His)-(4-Br-D-Phe)-Arg-Trp-Cys]-NH2 [Compound 90] | 7.78
Ac-cyclo[hCys-His-D-Phe-Arg-Trp-Cys]-OH [Compound 138] | 6.95
Ac-Tyr-Arg-cyclo[Cys-Trp-His-D-Phe-Arg-Trp-Cys]-NH2 [Compound 23] | 7.89
